We go through two molecules from PubChem BioAssay AID565 (University of Pittsburgh Molecular Library Screening Center, 2006).

The entries are a selection whose mix differs from that of the whole data set. Some of these compounds have results that are not shown, active ones among them. Active and inactive are the calls of the source. No stated cut-off is given here; in the data, active means inhibition above about 50%; inactive means the rest.

This experiment has as its target Gag-Pol polyprotein (Human immunodeficiency virus type 1 group M subtype B (isolate HXB2)) (UniProt P04585). The experiment is described as follows: blockers of HIV-1 RNase H RNA/DNA cleavage – biochemical, fluorescence, primary screen (AID 565). To be noted: RT-RNase H RNA/DNA duplex cleavage, at 10 µM, hits give high values.
The term inhibition denotes the relative decrease from the control value, in per cent. `O=C(OC1CN2CCC1CC2)C(CO)(c1ccccc1)c1ccccc1` (configuration not stated): the inhibition is inactive: -5.68%. Consider `CN(C)c1cccc(C(=O)NCC2(N(C)C)CCCCC2)c1`, for which the inhibition was inactive: 5.25%.
